Measured melting point values of organic chemicals

The melting point is given in degrees Celsius.
Cells with "–" have no entry in this list.
"via" names the databases from which the curators took the value.

SMILES	name	MP (°C)	via
N=C(NO)c1ccc([N+](=O)[O-])cc1	4-Nitrobenzamidoxime	188	OCHEM
COc1ccc2c(c1)NC(=O)C2=O	6-Methoxyisatin	224	OCHEM
FC(F)(Cl)C(F)(F)S(F)(F)(F)(F)F	–	-113	ChemicalBook
Fc1ccc(-c2cc(CBr)on2)cc1	5-(Bromomethyl)-3-(4-fluorophenyl)-1,2-oxazole	75	OCHEM
Cc1nc2cc(C(=O)O)ccc2n1-c1ccccc1	2-Methyl-1-phenyl-1H-benzimidazole-5-carboxylic acid	211	OCHEM
Nc1n[nH]c(-c2cccc(Br)c2)n1	5-(3-bromophenyl)-4H-1,2,4-triazol-3-amine	220	OCHEM
Cc1ccc(-c2ncc(Cl)cc2-c2ccc(S(C)(=O)=O)cc2)cn1.Cc1ccc(S(=O)(=O)O)cc1	–	216.5	eChemPortal
CCNc1ccc(C(=O)O)cc1[N+](=O)[O-]	N-Ethyl-3-nitro PABA	240	OCHEM
O=C(O)Cc1ccc(Oc2ccccc2)cc1	(4-Phenoxyphenyl)acetic acid	89.75	OCHEM
O=S(=O)(O)CCO	2-Hydroxyethanesulfonic acid	36	PubChem, eChemPortal
CNC(=O)c1ccc(C)c(N)c1	3-Amino-N,4-dimethylbenzamide	168	OCHEM
O=C(O)CS(=O)(=O)c1ccc([N+](=O)[O-])cc1	[(4-nitrophenyl)sulfonyl]acetic acid	163	OCHEM
Cc1ccc2c(c1)Sc1cc(C)ccc1O2	2,8-Dimethylphenoxathiine	71.67	eChemPortal
Cc1ccc(NC(=O)NC(=O)CCl)cc1C	2-Chloro-N-[(3,4-dimethylphenyl)carbamoyl]acetamide	145	OCHEM
Clc1ccccc1-c1ncn[nH]1	5-(2-chlorophenyl)-1H-1,2,4-triazole	155	OCHEM
O=C1NC(=O)C(Cc2ccccc2)(Cc2ccccc2)N1	5,5-dibenzylimidazolidine-2,4-dione	319	OCHEM
O=C1CC(C(=O)O)c2ccccc2N1 (configuration not stated)	2-oxo-1,2,3,4-tetrahydroquinoline-4-carboxylic acid	212	OCHEM
O=C(O)c1cc2c(s1)-c1ccccc1OC2	4H-thieno[3,2-c]chromene-2-carboxylic acid	237	OCHEM
Cc1nc2ccc(Cl)cc2cc1C(=O)O	6-chloro-2-methylquinoline-3-carboxylic acid	219	OCHEM
CC(C)c1ccc(C=O)cc1[N+](=O)[O-]	3-Nitro-4-(propan-2-yl)benzaldehyde	51	OCHEM
CS(=O)(=O)c1cccc(C(=O)Cl)c1	3-(Methanesulfonyl)benzoyl chloride	86	OCHEM
O=C(O)CNc1ncnc2ccccc12	(quinazolin-4-ylamino)acetic acid	220	OCHEM
O=c1c2ccccc2[nH]c2ccc(O)cc12	2-Hydroxy-10H-acridin-9-one	320	OCHEM
O=C(O)c1ccc(-c2ccccc2F)o1	5-(2-fluorophenyl)-2-furoic acid	174	OCHEM
O=C(O)Cn1nnc2ccccc21	Benzotriazol-1-yl-acetic acid	211	OCHEM
COC(=O)C(N)c1ccc(O)cc1 (configuration not stated)	Methyl amino(4-hydroxyphenyl)acetate	177.3	eChemPortal
Cc1cc(Cl)n2ncnc2n1	7-chloro-5-methyl-[1,2,4]triazolo[1,5-a]pyrimidine	221	OCHEM
O=C(O)CCc1ccsc1	3-thien-3-ylpropanoic acid	56	OCHEM
CCCCCCCCCCCCCCCCC(CO)CCCCCCCCCCCCCC (configuration not stated)	1-Octadecanol, 2-tetradecyl-	39	eChemPortal
CCCCn1c(N)cc(=O)n(C)c1=O	6-Amino-1-butyl-3-methylpyrimidine-2,4(1H,3H)-dione	93	OCHEM
Nc1ccccc1C(=O)N1CCCC1	(2-Aminophenyl)(pyrrolidin-1-yl)methanone	87	OCHEM
CC(=O)Nc1sc(C)c(C)c1C(=O)O	2-acetamido-4,5-dimethylthiophene-3-carboxylic acid	218	OCHEM
Cc1n[nH]c(=S)n1Cc1ccccc1	4-benzyl-5-methyl-4h-[1,2,4]triazole-3-thiol	165	OCHEM
Nc1ncc(Cc2cc(Cl)ccc2Cl)s1	5-(2,5-Dichloro-benzyl)-thiazol-2-ylamine	112	OCHEM
Cc1ccc(-c2ccc(C=O)o2)cc1	5-(4-methylphenyl)-2-furaldehyde	54	OCHEM
CCCCCCCCC(=O)OCC(CC)(COC(=O)CCCCCCCC)COC(=O)CCCCCCCC	Trimethylolpropane trinonanoate	-36.7	OFMPub, eChemPortal
COC(=O)c1ccc(C)c(NC(=O)CCl)c1	Methyl 3-(2-chloroacetamido)-4-methylbenzoate	136	OCHEM
Cc1cc2ccc3cc(C)cc4ccc(c1)c2c34	2,7-Dimethylpyrene	230	PubChem
N=C(N)NS(=O)(=O)c1ccccc1	N-Carbamimidoylbenzenesulfonamide	212	OCHEM
Cc1ccc(NC(=O)C2CCCNC2)nc1 (configuration not stated)	N-(5-Methylpyridin-2-yl)piperidine-3-carboxamide	145	OCHEM
O=C(O)C1CCCN1C(=O)c1cccs1 (configuration not stated)	1-(Thiophene-2-carbonyl)proline	146	OCHEM
N#CCCC(=O)c1cccnc1	4-Oxo-4-(pyridin-3-yl)butanenitrile	72	OCHEM
O=C(O)C1=Nc2cccc3cccc(c23)N1	1H-perimidine-2-carboxylic acid	211	OCHEM
O=C1C(c2nc3ccccc3cc2O)=C(O)c2ccccc21	1H-Inden-1-one, 3-hydroxy-2-(3-hydroxy-2-quinolinyl)-	267.6	eChemPortal
C=C(C)C(=O)OCCCCCCCCCCCCCCCC	2-Propenoic acid, 2-methyl-, hexadecyl ester	16	eChemPortal
COc1ccccc1Nc1ccc(N)cc1	N~1~-(2-Methoxyphenyl)benzene-1,4-diamine	74	OCHEM
CCCOc1ccc(C(=O)NN)cc1	4-propoxybenzohydrazide	89	OCHEM
O=C(F)c1cc(Cl)c(F)c(Cl)c1F	3,5-Dichloro-2,4-difluorobenzoyl fluoride	-14	eChemPortal
Cn1cnnc1-c1ccc(N)cc1	4-(4-methyl-4H-1,2,4-triazol-3-yl)aniline	257	OCHEM

The first 7 entries again:

SMILES	name	MP (°C)	via
N=C(NO)c1ccc([N+](=O)[O-])cc1	4-Nitrobenzamidoxime	188	OCHEM
COc1ccc2c(c1)NC(=O)C2=O	6-Methoxyisatin	224	OCHEM
FC(F)(Cl)C(F)(F)S(F)(F)(F)(F)F	–	-113	ChemicalBook
Fc1ccc(-c2cc(CBr)on2)cc1	5-(Bromomethyl)-3-(4-fluorophenyl)-1,2-oxazole	75	OCHEM
Cc1nc2cc(C(=O)O)ccc2n1-c1ccccc1	2-Methyl-1-phenyl-1H-benzimidazole-5-carboxylic acid	211	OCHEM
Nc1n[nH]c(-c2cccc(Br)c2)n1	5-(3-bromophenyl)-4H-1,2,4-triazol-3-amine	220	OCHEM
Cc1ccc(-c2ncc(Cl)cc2-c2ccc(S(C)(=O)=O)cc2)cn1.Cc1ccc(S(=O)(=O)O)cc1	–	216.5	eChemPortal

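The OPERA project collected these measurements from public sources as training and test data for property models. One number stands for a compound and property, with no spread given. Method, purity and exact conditions of the single measurements are not given. The measured form (salt, isomer or mixture) is not always the one drawn. Unmarked limits or estimates from the upstream databases cannot be ruled out.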

Values as listed in the OPERA 2.9 repository of K. Mansouri.